This note sets out measurements from ChEMBL document CHEMBL1155952, “4-Amino-6-arylamino-pyrimidine-5-carbaldehyde hydrazones as potent ErbB-2/EGFR dual kinase inhibitors” (Bioorg Med Chem Lett, 2008).

The chains behind the UniProt entries cited, without tags or fusion partners.
UniProt P00533, whole entry: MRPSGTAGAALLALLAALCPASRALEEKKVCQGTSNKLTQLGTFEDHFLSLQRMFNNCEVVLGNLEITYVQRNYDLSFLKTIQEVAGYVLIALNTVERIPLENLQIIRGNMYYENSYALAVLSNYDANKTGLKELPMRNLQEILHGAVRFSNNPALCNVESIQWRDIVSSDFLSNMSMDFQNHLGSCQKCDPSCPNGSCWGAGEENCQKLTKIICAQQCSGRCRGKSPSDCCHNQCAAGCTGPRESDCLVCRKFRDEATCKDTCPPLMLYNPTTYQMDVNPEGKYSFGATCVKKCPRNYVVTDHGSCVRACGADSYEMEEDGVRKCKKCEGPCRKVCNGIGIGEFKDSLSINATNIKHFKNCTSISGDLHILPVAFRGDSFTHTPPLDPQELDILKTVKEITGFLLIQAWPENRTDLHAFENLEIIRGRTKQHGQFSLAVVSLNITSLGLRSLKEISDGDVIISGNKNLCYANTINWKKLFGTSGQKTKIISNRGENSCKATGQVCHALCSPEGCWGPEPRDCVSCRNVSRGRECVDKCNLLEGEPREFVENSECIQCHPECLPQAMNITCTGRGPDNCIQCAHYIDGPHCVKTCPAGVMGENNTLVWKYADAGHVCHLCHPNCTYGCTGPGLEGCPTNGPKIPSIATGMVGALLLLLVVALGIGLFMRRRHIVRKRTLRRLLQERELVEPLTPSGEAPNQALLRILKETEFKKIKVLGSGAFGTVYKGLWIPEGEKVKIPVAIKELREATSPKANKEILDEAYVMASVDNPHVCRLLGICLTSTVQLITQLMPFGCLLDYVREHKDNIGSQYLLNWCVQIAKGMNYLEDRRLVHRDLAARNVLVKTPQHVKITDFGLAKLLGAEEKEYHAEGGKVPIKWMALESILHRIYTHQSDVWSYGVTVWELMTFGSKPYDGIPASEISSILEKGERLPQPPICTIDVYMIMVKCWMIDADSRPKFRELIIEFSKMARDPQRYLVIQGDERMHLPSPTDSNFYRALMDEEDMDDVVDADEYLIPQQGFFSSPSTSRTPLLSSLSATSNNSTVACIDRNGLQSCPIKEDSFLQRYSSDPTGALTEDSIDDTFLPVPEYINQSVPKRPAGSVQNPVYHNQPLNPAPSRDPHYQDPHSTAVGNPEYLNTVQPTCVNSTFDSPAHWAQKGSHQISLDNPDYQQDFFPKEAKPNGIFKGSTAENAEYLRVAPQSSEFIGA

For this assay, the target named is Epidermal growth factor receptor (Homo sapiens, UniProt P00533). As to the kind of experiment: Inhibition of human EGFR expressed in SF9 cells.

Consider `Nc1ncnc(Nc2ccc3c(cnn3Cc3cccc(F)c3)c2)c1/C=N/N1CCCCC1`, for which the IC50 – broadly, the midpoint of a concentration-inhibition curve – was found to be 30 nM.
